Data on 1 compound can be found in article PMC4332549 (ChemMedChem, 2012).

Protein sequences, listed by entry. Tags and fused reporters are not part of them. Lines headed by an entry give the natural chain unless they say otherwise; changes in a name come on top.
UniProt P47211: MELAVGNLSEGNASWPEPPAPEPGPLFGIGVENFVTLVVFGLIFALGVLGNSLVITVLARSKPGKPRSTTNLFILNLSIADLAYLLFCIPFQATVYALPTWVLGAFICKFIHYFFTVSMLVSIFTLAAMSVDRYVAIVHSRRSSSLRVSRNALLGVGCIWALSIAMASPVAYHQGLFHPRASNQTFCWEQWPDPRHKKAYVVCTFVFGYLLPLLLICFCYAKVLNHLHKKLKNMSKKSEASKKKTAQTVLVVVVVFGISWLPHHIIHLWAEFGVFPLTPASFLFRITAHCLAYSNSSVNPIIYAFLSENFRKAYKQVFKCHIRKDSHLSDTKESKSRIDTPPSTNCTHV

Assay [1] has as its target T1, hGAL2 (human galanin receptor GalR2) (Homo sapiens, UniProt O43603).
T1 sequence (O43603 1-387): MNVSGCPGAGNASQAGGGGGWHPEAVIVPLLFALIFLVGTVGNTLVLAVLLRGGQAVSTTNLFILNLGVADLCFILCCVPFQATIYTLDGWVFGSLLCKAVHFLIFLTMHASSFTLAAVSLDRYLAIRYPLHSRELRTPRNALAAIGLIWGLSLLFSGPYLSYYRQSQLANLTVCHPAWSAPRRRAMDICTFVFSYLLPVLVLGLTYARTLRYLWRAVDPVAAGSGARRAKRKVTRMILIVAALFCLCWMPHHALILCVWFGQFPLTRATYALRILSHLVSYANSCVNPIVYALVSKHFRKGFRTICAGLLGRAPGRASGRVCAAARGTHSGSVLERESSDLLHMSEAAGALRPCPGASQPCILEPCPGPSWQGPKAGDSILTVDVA
Briefly: Competitive binding assay, Eu-labeled galanin, time-resolved fluorescence.

In assay [2] the target is hGAL1 (human galanin receptor GalR1) (Homo sapiens, UniProt P47211). The assay is described as above.

Usually Ki stands for the equilibrium dissociation constant of an inhibitor or competing ligand from its target. Read a high Ki as weaker binding.

`CCCCCCCCCCCCCCCC(=O)NCCCC[C@H](NC(=O)[C@@H](CCCCN)NC(=O)[C@@H](CCCCN)NC(=O)[C@@H]1CCCN1C(=O)CNC(=O)[C@H](CC(C)C)NC(=O)[C@H](CC(C)C)NC(=O)[C@H](Cc1ccc(O)cc1)NC(=O)CNC(=O)[C@H](C)NC(=O)[C@H](CO)NC(=O)[C@H](CC(N)=O)NC(=O)[C@H](CC(C)C)NC(=O)[C@@H](NC(=O)[C@H](Cc1c[nH]c2ccccc12)NC(=O)CNC)[C@@H](C)O)C(=O)N[C@H](CCCCN)C(N)=O` [Gal-B9]: the values for the inhibition constant Ki in assay [1] and in assay [2] were 15 ± 8.5 nM and 0.9 ± 0.2 nM, respectively.
